The target in the assay is T1, CYP27A1 (Homo sapiens, UniProt Q02318).
T1 sequence (Q02318 34-531): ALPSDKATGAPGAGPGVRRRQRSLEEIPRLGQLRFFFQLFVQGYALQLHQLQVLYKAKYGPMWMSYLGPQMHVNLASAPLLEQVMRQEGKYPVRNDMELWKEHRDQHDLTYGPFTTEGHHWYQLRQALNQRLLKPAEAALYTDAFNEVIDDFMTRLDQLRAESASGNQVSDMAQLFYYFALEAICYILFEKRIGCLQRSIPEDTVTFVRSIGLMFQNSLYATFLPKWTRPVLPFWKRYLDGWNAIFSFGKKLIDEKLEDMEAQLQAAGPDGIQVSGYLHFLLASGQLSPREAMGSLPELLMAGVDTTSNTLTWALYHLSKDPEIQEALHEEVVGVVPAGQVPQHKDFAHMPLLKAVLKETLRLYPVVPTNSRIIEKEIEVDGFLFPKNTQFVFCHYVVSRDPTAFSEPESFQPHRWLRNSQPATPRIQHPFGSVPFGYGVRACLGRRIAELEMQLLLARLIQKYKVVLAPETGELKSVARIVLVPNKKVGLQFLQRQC
Put plainly: CYP27A1 enzyme assay. In kind it is biochemical.

Each structure is given as a SMILES string.

A word on the IC50: it is the concentration at which inhibition is half-maximal. Low values mean inhibition by little substance, high ones a need for much substance.

Compound `C=C1/C(=C\C=C2/CCC[C@]3(C)[C@@H]([C@H](C)CCS(=N)(=O)c4ccccc4)CC[C@@H]23)C[C@@H](O)C[C@@H]1O` (single isomer, unassigned) [I(a)] came in with an IC50 above 1000 nM.

The values above are taken from US7973024B2, “24-sulfoximine vitamin D3 compounds” (Cyctochroma Inc., priority 2002, dated 2011).
